Data on 2 substances can be found in US12029804B2, “Peptide for promoting mucous membrane permeation and composition containing same” (SOONCHUNHYANG UNIVERSITY INDUSTRY ACADEMY COOPERATION …, priority 2018, dated 2024).

For one data set, the system named is nasal mucous membrane. Particulars: rat, intranasal. On the procedure: Male Sprague-Dawley (SD) rats (280-300 g) were acclimated for a minimum of two days in individual cages in a laboratory animal room. At this time, the rats were allowed to freely consume food and water before an experiment, provided with light for 12 hours, and maintained in the dark state for 12 hours. One day before the experiment, the animals were provided only with water and fasted.
The rats prepared in above 1 were divided into each group of three to five rats so as to prepare a total of nine groups, after which each of the test substances prepared was intranasally administered into the group. At this time, the dosage of each drug was 1.0, 2.5 or 5.0 mg/kg per rat.
Before intranasal administration, the rat was anesthetized and cannulated into the femoral veno-artery using PE-50. The solution was carefully administered to the nostril of the rat using a micropipette (Eppendof) so as not to affect the nasal mucous membrane. At this time, the rat's body was laid on the floor and the head was placed while leaning against the wall.
The collected blood was centrifuged at 13,000 rpm for 10 minutes so as to obtain 100 μl of plasma. After adding 200 μl of methanol to the obtained plasma, the resulting solution was subjected into vortex, and then centrifuged again at 13,000 rpm for 10 minutes to carry out deproteinization, and the supernatant was quantitatively analyzed by HPLC-MS.

Data set [1] deals with intestinal mucous membrane. Particulars: rat, duodenum, exenadine (10 mg/kg) alone (control); Mean ± SEM. As to the method: Before drug administration, the rat was anesthetized and cannulated into the femoral veno-artery using PE-50. An abdominal cavity was opened and the test substance was administered to an upper duodenum of the small intestine.
After administration of the solution through a cannula inserted into the femoral vein of the rat, each 250 μl of blood was collected at 5, 10, 20, 40, 60, 120, 180 and 240 minutes and saline was supplemented via the femoral artery. The collected blood was centrifuged at 13,000 rpm for 10 minutes so as to obtain 100 μl of plasma. After adding 200 μl of methanol to the obtained plasma, the resulting solution was subjected into vortex, and then centrifuged again at 13,000 rpm for 10 minutes to carry out deproteinization, and the supernatant was quantitatively analyzed by HPLC-MS.

The mark [2] stands for this setting: fexofenadine with peptide vs fexofenadine alone.

Read-outs that look alike come from different tables or passages of the source.

As for FX1IGRL-OH (X1=Dap(N3)) [Example 2], the “AUC0-360min of fexofenadine, times higher than the group dosed with fexofenadine alone” value with nasal mucous membrane (fexofenadine with peptide (text on Table 1)) turned out to be 1.9 times. In addition, in the data set on nasal mucous membrane (setting [2]), the “Fexofenadine AUC0-240 min, fold of control group” value is given as “(1.88-fold)”; the “Fexofenadine Cmax, fold of control group” value is on record as “double”; the “Fexofenadine Tmax, fold of control group” value was “(0.67-fold)”. The “Fexofenadine Cmax, fold of control group” value in the data set with nasal mucous membrane (fexofenadine with peptide vs fexofenadine alone, listed as H-FX1IGRL-OH) is “(1.97-fold)”.

exenadine [reference compound]: the “Exenadine AUC0-240 min” value in data set [1] worked out at 4.49 ± 0.94 µg·min/mL.
